Yeast mating assay 2: variants of the scFv Ab-95

Source: Engelhart et al. 2022 (doi:10.1038/s41597-022-01779-4), MIT Lincoln Laboratory and A-Alpha Bio; data file from the FLAb repository.

Target: peptide PDVDLGDISGINAS, taken from heptad repeat 2 (HR2) of SARS-CoV-2 spike.

Ab-95 is the parent antibody, in scFv form: VH, then a (GGGGS)3 linker, then VL. The heavy chain is unchanged in all variants.
VH: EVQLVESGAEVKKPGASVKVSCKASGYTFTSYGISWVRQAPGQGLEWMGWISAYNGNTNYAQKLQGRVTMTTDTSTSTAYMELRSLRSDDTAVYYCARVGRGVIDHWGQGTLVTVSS
VL: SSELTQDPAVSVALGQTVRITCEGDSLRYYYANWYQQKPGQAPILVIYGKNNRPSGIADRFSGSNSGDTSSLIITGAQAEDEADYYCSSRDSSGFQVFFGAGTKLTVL

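Library AAYL52 holds single substitutions and randomly drawn double and triple substitutions in the CDRs. The assay is AlphaSeq: two haploid yeast populations carry antibody and antigen on their surface. After mating in shaken culture at 30 °C for 16 h, diploids were selected and their barcode pairs sequenced. The ratio of observed to expected reads was calibrated, replicate by replicate, on BCL2-family standards whose Kd was known from biolayer interferometry. Mating was done three times.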

Each variant is given by its three light chain CDRs, as the data file delimits them; those of the parent are EGDSLRYYYAN, GKNNRPS, SSRDSSGFQVF.
Numbers give log10(Kd / nM), so 0 is 1 nM and 3 is 1 µM. Smaller is tighter.
"ND" marks a missing value. The strain was present, yet no cells mated with the target were sequenced in that replicate, which points to weak or no binding.
In this assay the parent's reference entry averaged 2.31; its copy inside this library read 2.25.

CDR-L1,CDR-L2,CDR-L3,"replicates, log10 nM",control signals
EGDSLRYYYAN,GKNNRPS,SARCSSTFQVF,4.01 / 4.14 / 3.17,2 of 9 (3.81)
AGDSLRYHYAN,GKNNRPS,SSNDSSGFQVF,3.28 / 4.90 / ND,3 of 9 (3.70)
EGDSLRYYYAN,GKGNRPS,SFRDSSGFQVT,2.08 / 2.33 / 2.35,3 of 9 (3.88)
EGDSLRMYLAN,GKKNRPS,SSRDSSGFQVF,5.00 / 4.20 / ND,4 of 9 (3.31)
EYDSLRDYYAV,GKNNRPS,SSRDSSGFQVF,ND / ND / ND,2 of 9 (3.34)
AGDSLWYYYAN,GKNNRPF,SSRDSSGFQVF,3.56 / 2.72 / 3.20,1 of 9 (3.37)
EGDSLRYYYAH,GKNERPS,SSRDSVGFQVF,ND / ND / ND,3 of 9 (4.11)
EGDSIRYYYAI,GKNNRPS,SSRDSSGFLVF,4.50 / ND / ND,1 of 9 (3.95)
EGDSERYYYAN,GKNNRPS,ESRDSSRFQVF,3.03 / ND / 3.76,2 of 9 (3.74)
EGDSLRYYYAD,GKNNRIS,SSRDSSGFQVF,ND / ND / ND,3 of 9 (2.62)
EGDSLRYYYAN,GNNNRPS,SSRDSSWFQCF,5.78 / ND / ND,0 of 9
EGDSLNYYYDN,GKNNRPS,SVRDSSGFQVF,3.16 / 5.49 / 4.06,4 of 9 (4.07)
EGDSLRYNYAN,GKNNRPS,SYRDSSGFQSF,4.08 / ND / ND,2 of 9 (5.07)
EGKSLRYYYAN,GKNNRPG,SVRDSSGFQVF,2.59 / 2.42 / 2.32,2 of 9 (3.13)
EGDSLWYYYAN,GKNDRPS,SSRDSGGFQVF,5.14 / 3.91 / 4.58,3 of 9 (3.69)
EGDSLRSYYAN,GKNNRTS,SSRDSSGFQGF,3.24 / 3.87 / 2.60,4 of 9 (4.07)
EGDSLRYYKAN,GKNNRPS,SSVWSSGFQVF,2.87 / 3.60 / 2.70,6 of 9 (3.90)
EGDSLRYYYAL,GKNNRPS,DSRDFSGFQVF,3.23 / 4.05 / ND,1 of 9 (2.82)
EGDSLHMYYAN,GKNNRPS,SSRDSSWFQVF,ND / 3.34 / 3.41,2 of 9 (3.60)
EGDSLRYYYAN,GDTNRPS,SARDSSGFQVF,2.42 / 1.93 / 1.60,0 of 9
EGDSLREYYAN,GKNNRPS,SSRDSSNVQVF,2.65 / 2.44 / 3.02,2 of 9 (3.70)
EGDSLRYYNAN,GKNNRWS,SSRDSSGFQKF,1.50 / 1.73 / 0.94,1 of 9 (3.33)
EGDSLRYYYAN,GKNNRPS,CSKDSSGFQVF,3.20 / 3.83 / 2.80,4 of 9 (4.05)
EGDSLRYYYAN,GKNNRPS,SSRELSGGQVF,3.18 / 3.21 / ND,4 of 9 (3.69)
EGDSLRYYYAN,GKNNRPS,SSDDSSGFIVH,3.78 / ND / ND,5 of 9 (3.94)
EGDSTRYYYAN,MKNNRPS,SSRDSSGFQVF,ND / 4.11 / ND,3 of 9 (3.38)
EGYSLRYYYAN,GKNNRPS,QSRDVSGFQVF,3.68 / 2.96 / ND,0 of 9
LGDSLRYHYAN,GKNNRPS,SSRDSSGFTVF,2.73 / 2.47 / 2.98,1 of 9 (5.31)
EDDSLRYYYAN,GWNNRPS,SSRNSSGFQVF,4.25 / 5.83 / 5.01,7 of 9 (4.13)
EGDSLAYYYAN,GKNNRPS,SSDDSSGFQVC,2.87 / 2.81 / 2.81,4 of 9 (3.98)
EGDGLRYYYCS,GKNNRPS,SSRDSSGFQVF,3.18 / 4.06 / 2.26,2 of 9 (4.26)
EGDSLRYYDAH,GKNPRPS,SSRDSSGFQVF,2.71 / 2.41 / ND,4 of 9 (3.99)
EGDSLQYYYAN,GKNNRPS,SSRDGSGFQVC,2.88 / 2.49 / 2.24,3 of 9 (3.82)
EGDSLRYYYNN,GKNNRPS,TSSDSSGFQVF,4.12 / ND / 3.86,2 of 9 (4.45)
EGDYLRYYYAN,GKNRRPS,SLRDSSGFQVF,3.34 / 5.35 / ND,2 of 9 (3.85)
EGDSLRWYYAN,GKNNRPS,SSRDSNRFQVF,ND / 6.03 / ND,2 of 9 (4.63)
EGISQRYYYAN,GKNNRPH,SSRDSSGFQVF,2.66 / 2.77 / 2.29,5 of 9 (3.90)

Again, the first 3 entries without any signal:

{"CDR-L1": "EYDSLRDYYAV", "CDR-L2": "GKNNRPS", "CDR-L3": "SSRDSSGFQVF", "replicates, log10 nM": "ND / ND / ND", "control signals": "2 of 9 (3.34)"}
{"CDR-L1": "EGDSLRYYYAH", "CDR-L2": "GKNERPS", "CDR-L3": "SSRDSVGFQVF", "replicates, log10 nM": "ND / ND / ND", "control signals": "3 of 9 (4.11)"}
{"CDR-L1": "EGDSLRYYYAD", "CDR-L2": "GKNNRIS", "CDR-L3": "SSRDSSGFQVF", "replicates, log10 nM": "ND / ND / ND", "control signals": "3 of 9 (2.62)"}

Nonspecific signal, from three strains lacking the peptide, appeared in 28% of pairings of library AAYL52, centred on 3.91 (5% of these signals below 2.90); values are not corrected for it. The control count says in how many pairings with the empty strains this scFv gave a signal, with their mean in brackets.